Laboratory results published in ChEMBL document CHEMBL4130359, “Indazole-based ligands for estrogen-related receptor α as potential anti-diabetic agents” (Eur J Med Chem, 2017).

What was measured:
Homo sapiens [1] = species on record: Homo sapiens; assay: Selectivity ratio of IC50 for recombinant GST-tagged human ERRbeta LBD assessed as inhibition of fluorescein-labeled coactivator peptide recruitment to IC50 for His6-tagged ERRalpha LBD (unknown origin) assessed as inhibition of GST-tagged SRC-2 co-activator peptide recruitment
Homo sapiens [2] = species on record: Homo sapiens; assay: Selectivity ratio of IC50 for ERRgamma (unknown origin) assessed as inhibition of co-activator peptide recruitment to IC50 for His6-tagged ERRalpha LBD (unknown origin) assessed as inhibition of GST-tagged SRC-2 co-activator peptide recruitment

Work on `CN1CC[C@@H](N2C(=O)S/C(=C\c3ccc4c(cnn4Cc4ccc(Cl)cc4C(F)(F)F)c3)C2=O)[C@H](F)C1` yielded a Ratio IC50 (Homo sapiens [1]) of over 400 and a Ratio IC50 (Homo sapiens [2]) of over 400.
